From article PMC10763754 (Science Advances, 2021)

Protein sequences, listed by entry. Tags and fused reporters are not part of them. Lines headed by an entry give the natural chain unless they say otherwise; changes in a name come on top.
UniProt P49427: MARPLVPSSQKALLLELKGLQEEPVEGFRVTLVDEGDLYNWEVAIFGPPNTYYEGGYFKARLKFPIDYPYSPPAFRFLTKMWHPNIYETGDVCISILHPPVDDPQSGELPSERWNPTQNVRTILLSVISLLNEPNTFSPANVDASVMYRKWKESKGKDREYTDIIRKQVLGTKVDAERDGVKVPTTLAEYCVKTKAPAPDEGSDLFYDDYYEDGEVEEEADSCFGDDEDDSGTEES

Columns and labels:
CDC34A-ubiquitin complex = CDC34A-ubiquitin complex (Homo sapiens, UniProt P0CG48+P49427); experiment: biochemical; assay type: binding; conditions: TR-FRET EC50, text, figures and Tables S3-S5; mean ± SD (n = 3)
CDC34A = CDC34A (Homo sapiens, UniProt P0CG48+P49427); experiment: Substrate-independent gel-based in vitro ubiquitination assay; assay type: biochemical

COCC(=O)N[C@@H](Cc1ccc(-c2cc(Cl)cc(Cl)c2)cc1)[C@H](O)[C@@H](O)C(=O)O [CC0651]
EC50 (CDC34A-ubiquitin complex): 31 µM
IC50 (CDC34A): 2.4 µM
